From PubChem BioAssay (NCI)
The entries are a selection whose mix differs from that of the whole data set.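 Compound tested at a single concentration for 48 hours in 96-well plates; a percent growth value below 10 was scored as active.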 The source made the active and inactive calls.

The molecules below were run on MDA-MB-468 breast (assay: NCI-60 one-dose screen, 48 h (100 = growth as untreated, 0 = no growth, -100 = all killed)). Conditions: 10 µM unless noted.

| SMILES | growth |
| --- | --- |
| O=C1OCCN1P(=O)(Cl)N1CCOC1=O | inactive: 97.8% |
| O=P(Cl)(N1CCCCCC1)N1CCCCCC1 | inactive: 97.1% |
| O=C1CSC(C(Cl)(Cl)Cl)N1c1ccc(Cl)cc1 (stereo not given) | inactive: 94.5% |
| O=C1NC(c2ccccc2)(c2ccccc2)C(=O)N1P(=O)(Oc1ccccc1)Oc1ccccc1 | inactive: 99.7% |
| CCP(Cl)(Cl)(Cl)CC | inactive: 88.1% |
| O=P(O)(NCCCO)N(CCCl)CCCl | inactive: 97% |
| O=C(c1ccc(F)cc1)N(CCCl)CCCl | inactive: 98.8% |
| COC(=O)C1(C)COP(=O)(N2CCCC2)OC1 (stereo not given) | inactive: 101% |
| CC(C)N(CCCl)/N=N/c1nc2nc[nH]c(=O)c2[nH]1 | inactive: 118% |
| CC1CN1P(=O)(Nc1ncccn1)N1CC1C (stereo not given) | inactive: 106% |
| ClP1(Cl)=NP(Cl)(Cl)=NP(Cl)(Cl)=N1 | inactive: 109% |
| CCCCOP(OCCCC)OCCCC | inactive: 102% |
| Cc1ccccc1CN(CCCl)Cc1ccccc1C | inactive: 100% |
| CN(CCCl)/N=N/c1nc2nc[nH]c(=O)c2[nH]1 | inactive: 105% |
| COC(=O)C1(C)COP(=O)(NCc2ccccc2)OC1 (stereo not given) | inactive: 116% |
| CC[C@H](C)[C@@H]1NC(=O)/C(=C(\C)O)C1=O | inactive: 107% |
| O=C(C(=O)c1ccc([N+](=O)[O-])cc1[N+](=O)[O-])c1ccc([N+](=O)[O-])cc1[N+](=O)[O-] | inactive: 109% |
| COc1cccc(OC)c1N(CCCl)CCCl | inactive: 107% |

| SMILES | growth |
| --- | --- |
| CN(CCCl)CC1OC(O)C(O)C(O)C1O (stereo not given) | inactive: 101% |
| CCN(CCCl)Cc1cccc2ccccc12 | inactive: 104% |
| ClCCN1CCn2cnc3ncnc-3c21 | inactive: 112% |
| NC(=O)c1[nH]cnc1/N=N\N(CCCl)CCCl | inactive: 103% |
| CCCC1OP(=O)(Nc2ccccc2)OCC1CC (stereo not given) | inactive: 106% |
| Cc1ccc(S(=O)(=O)CN(CCCl)CCCl)cc1 | inactive: 103% |
| O=[N+]([O-])c1ccc(SSc2ccc([N+](=O)[O-])cc2[N+](=O)[O-])c([N+](=O)[O-])c1 | inactive: 109% |
| CC(/C=N/N=C(\N)N[N+](=O)[O-])=N\N=C(/N)N[N+](=O)[O-] | inactive: 96.9% |
| CN1C(=O)N(C)P12(Cl)N(C)C(=O)N2C | inactive: 107% |
| Clc1ccc(P(Cl)Cl)cc1 | inactive: 109% |
| ClCCN1c2ccccc2Sc2ccccc21 | inactive: 110% |
| Nc1cccc([As](=O)(O)c2ccccc2)c1 | inactive: 96.3% |
| O=[N+]([O-])c1ccc(Oc2cccc(Oc3ccc([N+](=O)[O-])cc3[N+](=O)[O-])c2)c([N+](=O)[O-])c1 | active: 3.69% |
| O=C(c1ccc([N+](=O)[O-])cc1)N(CCCl)CCCl | inactive: 99.4% |
| CCSC(O)C(Cl)(Cl)Cl (stereo not given) | inactive: 90% |
| COP(=O)(OC)N1CC1c1ccccc1 (stereo not given) | inactive: 104% |
| CN(CCCl)CCC(=O)c1ccccc1 | inactive: 76.7% |
